The test system of this test is N87 tumor cells. Kind of test: In vitro activity test (MTS, 5 days), growth inhibition of N87 cells. Format: cell-based. To be noted: 120 h. How it is done:
• Cells: derived from the Cell Bank of the Chinese Academy of Sciences; • Tumor cell culture medium: Gibco™; • Fetal Bovine Serum (FBS): BIOWEST™;
• Growth medium (with 10% FBS, Penicillin/streptomycin (100 U/mL); • Assay medium (with 1% FBS, Penicillin/streptomycin (100 U/mL);
The biosafety cabinet was turned on for UV light irradiation 30 min in advance, and subsequently ventilated for 3 minutes. The growth medium, assay medium, D-PBS and trypsin were preheated in a 37°C thermostatic water bath, after which the surface was sterilized with alcohol and placed in the biosafety cabinet. […]
The MTS reagent was removed from the test samples after 5 days of action, thawed at room temperature and protected from light, vortexed and mixed thoroughly, and then 20 µL of Cell Titer One Solution Reagen MTS reagent was added along the side wall of the wells for every 100 µL of cell culture volume in a biosafety cabinet. […] After the end of the reaction, took out the 96-well plate, placed in the enzyme labeling instrument to detect the OD490 nm absorbance value, and performed the data recording, organization and storage.

What is called IC50 is the concentration that inhibits the measured activity by half. A high value points to weaker potency in that assay.

Molecule `COc1ccc(C2=CN3C(=O)c4cc(OC)c(OCC56CC(C(=O)N7C[C@@H](CCl)c8c7cc(O)c7cccc(C)c87)(C5)C6)cc4N=C[C@@H]3C2)cc1` [Compound A] showed a half-inhibitory concentration (IC50) of 0.82 nM.

Values taken from patent EP4420684A1, “DNA TOXIC DIMER COMPOUND AND CONJUGATE THEREOF” (Systimmune, Inc., priority 2022, dated 2023).
